## Binding of CDR-mutated scFvs to a peptide of the spike HR2 region

Target peptide (SARS-CoV-2 spike, HR2 region): PDVDLGDISGINAS

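The parent was found by panning a naive human phage display library on the peptide. The variants were designed computationally from a first round of random CDR variants and then made and measured. Group labels follow the data file (Ctrl: baseline library sampled from a position-specific scoring matrix, with some repeated check sequences; En: ensemble of fine-tuned language models; GP: Gaussian process model; GPLM: also part of the Gaussian process libraries; HC: hill climbing; Gen: genetic algorithm; Gibbs: Gibbs sampling; a sequence that several methods proposed may carry one label only). The scFvs were displayed on barcoded MATa yeast, the peptide on MATalpha yeast. Pairs that bind mate more often; barcode pairs of the diploids are counted by sequencing. Each replicate has its own calibration line, from reference interactions of the BCL2 family. The assay was run in six technical replicates.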

Parent: Ab-14, a human scFv built as VH, three GGGGS repeats, VL. Only the CDRs of the light chain vary.
VH: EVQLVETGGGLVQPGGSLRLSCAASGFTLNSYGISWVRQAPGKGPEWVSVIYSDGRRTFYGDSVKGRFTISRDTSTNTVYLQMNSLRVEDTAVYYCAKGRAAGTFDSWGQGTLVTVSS
VL: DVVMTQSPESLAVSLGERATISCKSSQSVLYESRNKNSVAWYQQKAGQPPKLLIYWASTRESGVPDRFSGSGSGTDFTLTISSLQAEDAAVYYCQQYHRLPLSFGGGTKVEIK

Each variant is given by its three light chain CDRs, as the data file delimits them; those of the parent are KSSQSVLYESRNKNSVA, WASTRES, QQYHRLPLS. Kd is apparent (estimated from mating counts) and averaged on the log scale over replicates with a signal. Smaller is tighter. An entry "no signal" has no value in the source: the pair was not observed among the diploids in any replicate. This suggests poor binding but is not conclusive.

CDR-L1,CDR-L2,CDR-L3,group,apparent Kd,detected
KLSQSHLYESRNKNSVA,NASTRES,QQYHRLPLM,GP_Gen,1.5 nM,6 of 6
KSSQSVLDESRNKNSVA,GISTRES,QQYHRLPLS,Ctrl,1.4 nM,6 of 6
TISQSTYWENFNKNSVA,QTSTREE,QDYDRLPLS,En_HC,no signal,0 of 6
KIGATLNTLMHQKNNVA,DLVEREN,QQYHRLPLS,En_Gen,16 nM,6 of 6
HLSWSQLYESRNKNSVA,NASTRES,QQYHRLPLS,GP_HC,660 pM,6 of 6
KIQMFLGTLMEQINSIA,NSEEIVQ,QSYFRLPLS,En_Gibbs,33 nM,5 of 6
KLMQSVLYESRNKNSVA,NASTRYS,QQYHRLPLS,GP_Gen,2.8 nM,6 of 6
KISMATAFESRNHNSVA,ENSTRES,QSYHRLPLS,En_HC,450 nM,1 of 6
KSECGVLYESRNKNSVA,GASTRED,QQYHRLPLS,GP_HC,470 pM,6 of 6
KLSQSFLYEDRNKNSVA,NASTRES,QQYHRLPLS,GP_Gen,500 pM,6 of 6
KLSQSVLYEMGMKNSVA,QAVTRMS,QQYHRLPLS,GP_Gibbs,4.2 nM,6 of 6
TLGDVTRMESNKKNSIA,DMSNRES,QQYHRLPLS,En_HC,210 pM,6 of 6
RSSQSVLYESRNSNSVA,DASTRES,QQYHRLPLS,Ctrl,4.1 nM,6 of 6
KLYYNVGTMSHNKQSIA,DMERRED,QQYHRLPLS,En_HC,1.4 nM,6 of 6
MISQLYNMGQFAINSVA,QASQRNE,QQYERLPLM,En_Gen,8.0 nM,5 of 6
FLHGNIEYGNGNWSAIA,ENTIRVD,QYYQHLPLA,En_Gibbs,370 nM,1 of 6
KTGQGVLYESRNKNSVA,GASTRES,QQYHRLPLS,GPLM_HC,1.4 nM,6 of 6
KVSQSVMVLQRNKNSVA,DNSTSGS,QQYHRLPLS,En_HC,450 nM,1 of 6
KQQFSGGGGSRNKNSVA,EASTRES,QQYHRLPLS,GP_Gibbs,2.4 nM,6 of 6
MISQLMNMGTFAINSVA,QAELRND,QQYDRLPLT,En_Gen,140 nM,5 of 6
KSSQSVLYVSRNMNSVA,EASTNFS,QQYVRLPLS,Ctrl,1.0 nM,6 of 6
KSSQSVLYESRNLNSVA,GASTRES,QQYHRLPLS,Ctrl,970 pM,6 of 6
KLREVQHLETKQRNNVA,DNDTREY,QDYFRLPLS,En_HC,1.3 µM,1 of 6
SLIPFDNQIMKGTNNIA,HTSVRAS,QQYMRLPFV,En_Gibbs,1.5 nM,6 of 6
KLDQSVLYESRNKNSVA,EASTRCS,QQYHRLPLS,GP_Gen,470 pM,6 of 6
KSSQSVQYESRNKNSVA,WASTREE,QQYHRLPLS,Ctrl,no signal,0 of 6
KLSQSYLYESRNKNSVA,NASQRES,QQYHRLPLS,GP_Gen,720 pM,6 of 6
KSSQSVPAESRNKNSVA,NASTRES,QQDHRLPLS,Ctrl,370 nM,3 of 6
SLMQVGGYESNVKNSIA,DLRTRES,QQYHRLPLS,En_HC,5.0 nM,6 of 6
KSAQSDLMESRNFNSVA,AASTRES,QQYHRLPLS,GP_Gibbs,1.1 nM,6 of 6
KVLQSVLYEGRNKNSVA,HASTRED,QQYHRLPLS,GP_HC,960 pM,6 of 6
KSSQSVLYESRVSNSVA,WASTREV,QQYHRLPLS,Ctrl,120 nM,1 of 6
KFEQSELYESRNKNSVA,EASTRES,QQYHRLPLS,GP_Gen,330 pM,6 of 6
KSSQSNLYESRNDNSVA,WASTRES,QQYHRLPNS,Ctrl,21 nM,3 of 6
KSSESVLYLSRNKNNVA,WASIRES,QAYHRLPLS,Ctrl,22 nM,6 of 6
KLSQSHLYESRNKNSVA,NASYRES,QQYHRLPLS,GP_Gen,530 pM,6 of 6
KSSQSVLYERENKNSVA,WASTRES,QQYHRLPLS,Ctrl,61 nM,6 of 6
KLTHAMASWRGQRHNIA,EATVTAP,QQYSRLPIS,En_Gibbs,61 nM,5 of 6
KSGQGVLYESRNKNSVA,EASTRES,QQYHRLPLS,GPLM_HC,1.3 nM,6 of 6
KSSQSIFNELRNKNSVA,KASTRES,QEYHRLPLS,Ctrl,7.6 nM,6 of 6
KLSQGWLYESRNCNQVA,NASQREE,QQYHRLPLS,GP_Gibbs,2.1 nM,6 of 6
KSSQSWLYESRNKNSVA,DASTRES,QQYHRLPLS,Ctrl,6.3 nM,6 of 6
KLSQSVLYESRNKNSVA,EASTRMV,QQYHRLPLS,GP_Gen,520 pM,6 of 6
KLSDPMVEWIANQSAVA,EHADTQH,QQYARLPLT,En_Gibbs,no signal,0 of 6
AISQSMDMTSRNVNSVA,DLTTRGN,QQYHRLPLS,En_HC,1.5 nM,6 of 6
NVHALMNHSSEFQQSIA,DEECRDA,QQYFRLPLS,En_Gibbs,27 nM,6 of 6
KSSQSVLYFSRNNNSVA,CASTRES,QQYHRLPLS,Ctrl,3.4 µM,1 of 6
TIGGTLMYGMRNRSNVA,EVSQRLN,QQYDRLPLM,En_Gen,21 nM,6 of 6
KITSMWTFESHNRNNIA,EESTRED,QSYHRLPLS,En_HC,6.9 nM,6 of 6
KSSQSMLGESRNKNSVA,HSSTRES,QQYHRLPLS,Ctrl,8.2 nM,6 of 6
KVQYQLANSEAHTNPVA,DASVVCA,QQYDRLPLG,En_Gibbs,240 nM,6 of 6
KVSEFMRGLMMRQDSIA,DNVTRNN,QQYDRLPLS,En_Gen,98 nM,1 of 6
KSSSSVMYESRNKNSVA,WASTRES,QQYERLPFS,Ctrl,110 nM,5 of 6
KISQSVMYMSSVYNSVA,QMSTREE,QQYNRLPLS,En_HC,21 nM,1 of 6
KLEGSHLYMSRNANSVA,NASTRMS,QQYHRLPLS,GP_Gibbs,390 pM,6 of 6
KLSMSWLYESRNKNSVA,NASQRES,QQYHRLPLS,GP_Gen,1.7 nM,6 of 6
KISQSMEYESRNVNSVA,YASTREV,QQYHRLPLS,GP_Gibbs,2.8 nM,6 of 6
HLSDTVMQGLYYRNSVA,QESTRAD,QQYHRLPLS,En_HC,4.3 nM,6 of 6
KIDGQRSYDAGRERAIA,DVTIRFR,QQYARLPLV,En_Gibbs,79 nM,5 of 6
KLSMITGHMQTEKNNVA,EMVTREN,QQYNRLPLS,En_Gen,2.0 nM,6 of 6
KFDQSWLLESRNKNSVA,HASQRCS,QQYHRLPLS,GP_Gibbs,1.7 nM,6 of 6
ILMQVYKEPGAAVNNIA,DGAIRLQ,QQYHRLPLV,En_Gibbs,6.5 nM,4 of 6
KLSQSVLYESENKNSVA,WASTRES,QQYHRLPLS,Ctrl,5.5 nM,30 of 30
HSSPSVLYEDRNKNSVA,NASTRER,QQYHRLPLS,GP_Gibbs,790 pM,6 of 6
KLDQSQLYESRNKNSVA,HASTRES,QQYHRLPLS,GP_Gen,1.2 nM,6 of 6
RSSQSVLYESRNKNSVA,WASTRES,QQYHRLPLS,Ctrl,280 nM,6 of 6
KLSQSVLYEERNKNSVA,QASTRLS,QQYHRLPLS,GP_Gen,590 pM,6 of 6
KLLWSVLLWSRNWNSVA,NASTREL,QQYHRLPLS,GP_Gibbs,110 nM,5 of 6
KLSQSVLYESRNPWSVA,NASTRES,QQYHRLPLS,GP_Gen,480 pM,6 of 6
FSSQSWLMEGRNDNSVA,SASTRED,QQYHRLPLS,GP_Gibbs,620 pM,6 of 6
KSQQSWLYESRNKNSVA,GASTREH,QQYHRLPLS,GP_HC,460 pM,6 of 6
KLRQVTGYESYNINSVA,QTSTRAS,QDYHRLPLS,En_HC,6.6 nM,6 of 6
KISQMIRVGSTASNSIA,EEVTRAK,QQYHRLPLF,En_Gen,18 nM,6 of 6
KSSQSVQYEDRNKNSVA,WASTRES,QQYHRLPLS,Ctrl,no signal,0 of 6
KSSQSVLTESRNKNSVA,SASTRES,QQYHRLPLS,Ctrl,4.5 nM,6 of 6
KIGMTLNTLYEKANNVA,DLVEREN,QQYFRLPLS,En_Gen,650 pM,6 of 6
MFSQLVMTGSRTRNAVA,QASTREN,QQYHRLPLS,En_HC,51 nM,6 of 6

A selection of 8 entries from above:

CDR-L1,CDR-L2,CDR-L3,group,apparent Kd,detected
KLSQSHLYESRNKNSVA,NASYRES,QQYHRLPLS,GP_Gen,530 pM,6 of 6
KSSQSVLDESRNKNSVA,GISTRES,QQYHRLPLS,Ctrl,1.4 nM,6 of 6
KLYYNVGTMSHNKQSIA,DMERRED,QQYHRLPLS,En_HC,1.4 nM,6 of 6
KLSQSVLYESENKNSVA,WASTRES,QQYHRLPLS,Ctrl,5.5 nM,30 of 30
MISQLYNMGQFAINSVA,QASQRNE,QQYERLPLM,En_Gen,8.0 nM,5 of 6
KSECGVLYESRNKNSVA,GASTRED,QQYHRLPLS,GP_HC,470 pM,6 of 6
KSSSSVMYESRNKNSVA,WASTRES,QQYERLPFS,Ctrl,110 nM,5 of 6
KIQMFLGTLMEQINSIA,NSEEIVQ,QSYFRLPLS,En_Gibbs,33 nM,5 of 6

Of ten entries with the parent sequence, four were seen in most replicates (averages 2.2 nM to 240 nM), three in one and three in none, so single entries are noisy. Some sequences occur more than once in the pool; their replicates are pooled. In the paper, a design with two or fewer of six values counts as a poor binder. The range of this assay differs from that of the first round, and the authors advise against merging the two. Background: pairings of all light chain designs with three empty control strains gave a value in 4% of cases (median 430 nM, 5th percentile 38 nM). Values in that range, when seen in few replicates, are hard to tell from nonspecific mating.

Data: MIT Lincoln Laboratory AlphaSeq set, Li et al. 2023, doi:10.1038/s41467-023-39022-2, as distributed in FLAb.